For 1 compound, Ratio Ki results are on record in ChEMBL document CHEMBL2311356, “The effect of 17-N substituents on the activity of the opioid κ receptor in nalfurafine derivatives” (Bioorg Med Chem Lett, 2013).

Assay [1] can be described thus: Selectivity ratio of Ki for delta opioid receptor in mouse whole brain membranes without cerebellum to Ki for kappa opioid receptor in guinea pig cerebellum. Format: cell membranes.
Assay [2] in a line: Selectivity ratio of Ki for mu opioid receptor in mouse whole brain membranes without cerebellum to Ki for kappa opioid receptor in guinea pig cerebellum. The format is cell membranes.

In the case of `CN(C(=O)Cc1ccccc1)[C@H]1CC[C@@]2(CCCO2)C[C@@H]1N1CCCC1`, the Ratio Ki in assay [1] was 285; in assay [2], 400.
